Where two headings read alike, the source gives them in different places.
Conditions: 1 mg single oral dose, fasting
Description: The data used in this work were obtained from four bioequivalence clinical trials conducted at the Clinical Trials Unit of the Hospital Universitario de La Princesa (UECHUP) (EUDRA-CT IDs: 2012-004433-17, 2013-002159-14, 2014-001123-77 and 2021-000315-23). […] The reference formulation (R) in all cases was Azilect® 1 mg tablets (TEVA Pharmaceuticals Europe B.V.), which was compared against different test formulations (T), all of them 1 mg tablets, except in clinical trial 3, whose test formulation was orodispersible 1 mg. The four bioequivalence trials had two periods and two sequences (TR and RT). In the first period, the volunteers randomly were administered one of the two formulations and, in the following period, after a 7-day washout period, the opposite formulation. All of them were reviewed and approved by Independent Ethics Board (IEB) of the Hospital Universitario de La Princesa, and by the Spanish Drug Agency (AEMPS). In addition, they were performed in accordance with the guidelines of the International Conference on Harmonization for Good Clinical Practice (ICH-GCP), current Spanish legislation and the Revised Declaration of Helsinki. The pharmacogenetic study (SFC-FG-2020-1) was likewise approved by the IEB of Hospital Universitario de La Princesa (registry number 4176, 9 July 2020).
In each period, the drug was administered under fasting conditions, which were maintained until 5 h after drug administration. Each subject provided 20 or 21 blood samples (depending on the clinical trial) that were extracted by BD Vacutainer® vacuum system with EDTA K2 tubes for analysis at different times between 0 h (before receiving the drug) and up to 12 h after drug intake. […] A high-performance liquid chromatography coupled to triple quadrupole mass spectrometry (HPLC-MS/MS) analytical method was used. The latter was validated according to European regulations for bioequivalence assessment, with a lower limit of quantification (LLOQ) of 10 pg/mL and a calibration range of 10–10,000 pg/mL.
Pharmacokinetic parameters were calculated with WinNonlin Professional (Scientific Consulting, Inc., Cary, NC, USA) following a non-compartmental model. The area under the curve (AUC0-t), was obtained by the trapezoidal method. The extrapolation to infinity (AUC0-∞) was determined by the sum of two partial AUCs: AUCt-∞ calculated by the ratio Ct/k, where Ct is the last detectable concentration and k the elimination slope; plus AUC0-t. Cmax and tmax were directly obtained from the plasma time-concentration curves. t1/2 was calculated as Ln2/k. Plasma clearance adjusted for bioavailability (Cl/F) was calculated as dose/AUC. Finally, the volume of distribution adjusted for bioavailability (Vd/F) was calculated by dividing Cl/F by k.
The SPSS software (v23.0, SPSS Inc., Chicago, IL, USA) was used for statistical analyses. AUC0-∞, and Cmax were divided by the dose/weight (DW) ratio to correct sex-related variability related to a varying weight. For the same purpose, Vd/F and Cl/F were divided by weight. With the purpose of normalizing their distributions, all pharmacokinetic parameters were logarithmically transformed for statistical analysis. Initially, a univariate analysis was conducted of the demographic characteristics according to sex and ethnicity, and of the pharmacokinetic parameters or ADR incidence based on sex, biogeographical group (hereinafter, “ethnicity”), genotypes and phenotypes.

Vd/F (ABCB1 rs1045642 A/A, n=23): 13.89 ± 3.87 L/kg | Vd/F (ABCB1 rs1045642 G/A, n=61): 14.71 ± 6.41 L/kg | Vd/F (ABCC2 rs2273697 A/A, n=3): 12.72 ± 2.28 L/kg | Vd/F (ABCC2 rs2273697 G/A, n=42): 14.95 ± 6.30 L/kg | Vd/F (ABCC2 rs2273697 G/G, n=73): 15.73 ± 5.94 L/kg | Vd/F (COMT rs4680 A/A, n=26): 17.45 ± 6.66 (pm=0.027) L/kg | Vd/F (COMT rs4680 G/A, n=56): 14.40 ± 6.06 L/kg | Vd/F (COMT rs4680 G/G, n=36): 15.39 ± 5.13 L/kg | Vd/F (CYP1A2 *1B/*1B, n=6): 11.98 ± 3.33 L/kg | Vd/F (CYP1A2 *1B/*1F, n=36): 15.24 ± 5.73 L/kg | Vd/F (CYP1A2 *1B/*1L, n=4): 18.28 ± 7.57 L/kg | Vd/F (CYP1A2 *1B/*1N, n=5): 19.45 ± 9.55 L/kg | Vd/F (CYP1A2 *1F/*1F, n=38): 15.32 ± 5.34 L/kg | Vd/F (CYP1A2 *1J/*1N, n=5): 11.59 ± 3.81 L/kg | Vd/F (CYP1A2 *1L/*1F, n=11): 13.05 ± 4.16 L/kg | Vd/F (CYP1A2 *1L/*1L, n=6): 15.94 ± 5.55 L/kg | Vd/F (CYP1A2 *1N/*1K, *1N/*1L, *1N/*1L and *1N/*1G merged, n=4): 22.89 ± 12.33 L/kg | Vd/F (CYP2C19 µM, n=3): 15.39 ± 12.27 L/kg | Vd/F (CYP2C19 IM, n=36): 16.62 ± 5.25 L/kg | Vd/F (CYP2C19 NM, n=56): 15.07 ± 5.84 L/kg | Vd/F (CYP2C19 PM, n=2): 7.33 ± 1.58 L/kg | Vd/F (CYP2C19 RM, n=21): 14.82 ± 6.62 L/kg | Vd/F (Caucasian, n=83): 15.00 ± 5.72 L/kg | Vd/F (Men, n=53): 12.18 ± 3.78 *^& L/kg | Vd/F (Mixed ethnicity, n=35): 16.27 ± 6.62 L/kg | Vd/F (NAT2 RA, n=9): 17.96 ± 5.87 L/kg | Vd/F (NAT2 SA, n=103): 15.07 ± 6.05 L/kg | Vd/F (SLC22A1*3 (rs12208357) *1/*1, n=104): 15.52 ± 6.05 L/kg | Vd/F (SLC22A1*3 (rs12208357) *1/*3, n=8): 12.35 ± 3.96 L/kg | Vd/F (SLC22A1*5 (rs34059508) *1/*1, n=113): 15.38 ± 6.07 L/kg | Vd/F (Total with CYP1A2 diplotype, n=115): 15.32 ± 6.06 L/kg | Vd/F (Total, n=118): 15.38 ± 6.00 L/kg | Vd/F (UGT1A6 rs7592281 G/G, n=111): 15.25 ± 5.93 L/kg | Vd/F (UGT1A6 rs7592281 G/T, n=7): 17.43 ± 7.29 L/kg | Vd/F (Women, n=65): 17.98 ± 6.23 L/kg
SMILES: C#CCN[C@@H]1CCc2ccccc21 [rasagiline, Rasagiline]
Vd/F (ABCB1 rs1045642 G/G, n=34): 17.59 ± 5.97 (pu = 0.018, pm = 0.001) ^$ L/kg

— paper PMC9610285, “Polymorphism of Drug Transporters, Rather Than Metabolizing Enzymes, Conditions the Pharmacokinetics of Rasagiline” (Pharmaceutics, 2022)
